Reference: PubChem BioAssay AID2247 (Johns Hopkins Ion Channel Center, 2010)
Only a part is listed here, and it is no random draw. The source made the active and inactive calls.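 The calls were made as follows: active = B-score over 3 SD under the library average, no early fluorescence shift, positive overall ratio signal; inactive = the rest.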

Chains of the proteins cited; added tags and fusions are not shown.
UniProt Q9QUQ5, whole entry: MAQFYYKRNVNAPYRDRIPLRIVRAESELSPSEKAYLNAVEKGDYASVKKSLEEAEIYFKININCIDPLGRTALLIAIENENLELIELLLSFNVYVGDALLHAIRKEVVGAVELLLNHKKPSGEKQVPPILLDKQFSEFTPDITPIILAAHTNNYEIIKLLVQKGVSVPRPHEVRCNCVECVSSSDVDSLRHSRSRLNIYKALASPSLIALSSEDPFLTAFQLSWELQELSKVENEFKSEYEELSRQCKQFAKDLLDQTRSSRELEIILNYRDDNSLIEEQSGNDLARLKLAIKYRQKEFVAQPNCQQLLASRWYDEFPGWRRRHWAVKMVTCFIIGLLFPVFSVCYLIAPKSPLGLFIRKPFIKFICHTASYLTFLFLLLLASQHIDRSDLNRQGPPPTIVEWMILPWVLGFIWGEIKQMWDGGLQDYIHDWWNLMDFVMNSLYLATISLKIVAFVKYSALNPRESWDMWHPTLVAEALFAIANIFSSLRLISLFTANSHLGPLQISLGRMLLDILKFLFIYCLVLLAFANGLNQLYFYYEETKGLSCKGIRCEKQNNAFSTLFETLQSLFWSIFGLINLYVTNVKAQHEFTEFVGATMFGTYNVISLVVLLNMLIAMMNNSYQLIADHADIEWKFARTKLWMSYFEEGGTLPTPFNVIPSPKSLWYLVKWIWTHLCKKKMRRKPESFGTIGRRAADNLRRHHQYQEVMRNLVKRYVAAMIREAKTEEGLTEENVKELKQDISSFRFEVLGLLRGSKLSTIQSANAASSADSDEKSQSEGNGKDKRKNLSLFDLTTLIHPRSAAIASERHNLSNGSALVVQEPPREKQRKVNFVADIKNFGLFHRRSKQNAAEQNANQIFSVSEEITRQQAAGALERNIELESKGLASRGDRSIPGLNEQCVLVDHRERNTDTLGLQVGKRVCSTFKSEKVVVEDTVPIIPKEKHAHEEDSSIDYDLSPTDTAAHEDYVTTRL

The compounds below were run against Short transient receptor potential channel 4 (Mus musculus) (UniProt Q9QUQ5) (assay: inhibitors of mouse TRPC4 channel, primary screen, Fluo4 calcium, HEK293 TRPC4beta/mu-opioid cells (AID 2247)). Conditions: DAMGO-evoked Fluo4 calcium flux, at 10 µM.
With C[C@H]1OP(=O)(Oc2ccccc2)[C@H](O)[C@H](O)[C@H]1N=[N+]=[N-] (some centres not stated) the outcome was “inactive”.
For O=P(Nc1nc2ccccc2s1)(c1ccccc1)c1ccccc1, the outcome was “inactive”.
In the case of CN(C)CCOC(=O)C(O)(c1ccccc1)C1CCCCC1 (configuration not stated), the outcome is reported as “inactive”.
COc1ccc(NP(C)(=O)Oc2ccccc2OC)cc1 (configuration not stated) was tested, and the outcome was “inactive”.
For CN1CCCCC1COC(=O)C1(O)c2ccccc2CCc2ccccc21 (configuration not stated), the outcome was “inactive”.
With COc1ccccc1OP(C)(=O)Nc1c(C)cccc1C (configuration not stated) the outcome was “inactive”.
In the case of O=P1(Nc2ncccn2)COc2ccccc2OC1, the outcome is reported as “inactive”.
With Cc1ccc(OCC(=O)OC2CN3CCC2CC3)cc1 (configuration not stated) the outcome was “inactive”.
With O=[As](O)(c1cccs1)c1cccs1 the outcome was “inactive”.
In the case of O=P1(Nc2ccc(Br)cn2)COc2ccccc2OC1, the outcome is reported as “inactive”.
With CCCOc1ccc(NP(C)(=O)Oc2ccc(Cl)cc2)cc1 (configuration not stated) the outcome was “inactive”.
CP(=O)(Nc1ccc(SC(F)(F)F)cc1)Oc1ccccc1 (configuration not stated) was tested, and the outcome was “inactive”.
For Nc1cccc([As](=O)(O)c2ccccc2)c1, the outcome was “inactive”.
In the case of COc1cc(C2NCCC3(OCCO3)C2(C)C)cc(OC)c1OC.O=[N+]([O-])c1cc([N+](=O)[O-])c(O)c([N+](=O)[O-])c1 (configuration not stated), the outcome is reported as “inactive”.
Cc1ccc(C(=O)OC2CN3CCC2CC3)cc1 (configuration not stated) was tested, and the outcome was “inactive”.
With CC1CCC(C(C)C)C(OP(=O)(Nc2ccccn2)c2ccccc2)C1 (configuration not stated) the outcome was “inactive”.
Cc1nn(-c2ccccc2)c2c1P(=O)(N1CCOCC1)N(C)C(c1ccccc1)=N2 (configuration not stated) was tested, and the outcome was “inactive”.
For O=C(/C=C/c1ccccc1)OC1CN2CCC1CC2 (configuration not stated), the outcome was “inactive”.
In the case of CCOC(=O)C(CC)C1=NC(C)(C)Cc2ccccc21.O=[N+]([O-])c1cc([N+](=O)[O-])c(O)c([N+](=O)[O-])c1 (configuration not stated), the outcome is reported as “inactive”.
CN(C)C1(CNC(=O)c2ccc(S(C)(=O)=O)cc2)CCCCC1 was tested, and the outcome was “inactive”.
For O=[N+]([O-])c1cc([N+](=O)[O-])c(Nc2nnnn2CCO)c([N+](=O)[O-])c1, the outcome was “inactive”.
COc1ccccc1CNC(=O)COC(=O)C(O)(c1ccccc1)c1ccccc1 was tested, and the outcome was “inactive”.
In the case of O=[N+]([O-])c1cc([N+](=O)[O-])c(-c2cnn(-c3ccccc3)c2)c([N+](=O)[O-])c1, the outcome is reported as “inactive”.
In the case of CC1(CBr)Cn2c(nc3ccccc3c2=O)S1 (configuration not stated), the outcome is reported as “inactive”.
With O=[As](O)(c1ccccc1Br)c1ccccc1Br the outcome was “inactive”.
In the case of CN(C(=O)Cc1ccc(Cl)c(Cl)c1)[C@@H]1CCCC[C@H]1N1CCCC1, the outcome is reported as “inactive”.
For CC(C)/C=N\N=C(\N)N[N+](=O)[O-], the outcome was “inactive”.
In the case of CCOP(=O)(Nc1ccc(C)cn1)OCC, the outcome is reported as “inactive”.
For CN(CCCl)Cc1cc(Cl)c(NC2=NCCN2)c(Cl)c1, the outcome was “inactive”.
For O=[N+]([O-])c1cc([N+](=O)[O-])c(-n2nnc3ccccc32)c([N+](=O)[O-])c1, the outcome was “inactive”.
CCOP(=O)(NC(=NC(C)c1ccccc1)NC(C)c1ccccc1)OCC (configuration not stated) was tested, and the outcome was “inactive”.
CCC1=CC2Cc3nc4ccc(Cl)cc4c(N)c3C(C1)C2 (configuration not stated) was tested, and the outcome was “inactive”.
With O=P1(Nc2ccccn2)COc2ccccc2OC1 the outcome was “inactive”.
CC(C)(C)C(=O)NC(Sc1ncccn1)C(Cl)(Cl)Cl (configuration not stated) was tested, and the outcome was “inactive”.
Clc1n[nH]nc1-c1nn[nH][15n]1 was tested, and the outcome was “inactive”.
With Cc1ccc(C)c(NP(C)(=O)Oc2ccccc2)c1 (configuration not stated) the outcome was “inactive”.
With CCCOP(=S)(Nc1nc(N)cc(=O)[nH]1)OCCC the outcome was “inactive”.
In the case of Cc1ccc(NCCc2c([N+](=O)[O-])cc([N+](=O)[O-])cc2[N+](=O)[O-])cc1, the outcome is reported as “inactive”.
In the case of Nc1cccc2c([As](=O)(O)O)cccc12, the outcome is reported as “inactive”.
With Cc1cc(C)cc(OP(C)(=O)Nc2ccccn2)c1 (configuration not stated) the outcome was “inactive”.
For CP(=O)(Nc1cccc(Br)c1)Oc1ccccc1 (configuration not stated), the outcome was “inactive”.
In the case of CCOP(=O)(Nc1cccc2ccccc12)OCC, the outcome is reported as “inactive”.
For COc1ccccc1OP(C)(=O)Nc1cccc(Br)c1 (configuration not stated), the outcome was “inactive”.
With CS(=O)(=O)c1ccc(Cl)c(NC(=O)COC(=O)C(O)(c2ccccc2)c2ccccc2)c1 the outcome was “inactive”.
For O=[As](O)(O)c1cccnc1, the outcome was “inactive”.
With COc1cc(C(=O)NCC2(N3CCOCC3)CCCCC2)cc(Cl)c1OC(C)C the outcome was “inactive”.
O=C(OC1CN2CCC1CC2)c1ccc(Cl)cc1 (configuration not stated) was tested, and the outcome was “inactive”.
For CCOC(=O)c1ccc(NP(C)(=O)Oc2cc(C)cc(C)c2)cc1 (configuration not stated), the outcome was “inactive”.
In the case of Cc1cc(C)cc(OP(C)(=O)Nc2ccc(C)cc2C)c1 (configuration not stated), the outcome is reported as “inactive”.
With Cc1cccc(OCC(=O)OC2CN3CCC2CC3)c1 (configuration not stated) the outcome was “inactive”.
For O=[As](O)(c1cccc(O)c1)c1cccc(O)c1, the outcome was “inactive”.
In the case of NC(=O)Nc1ccc([As](=O)(O)O)cc1, the outcome is reported as “inactive”.
In the case of CC1=NCCc2c1[nH]c1ccccc21.O=[N+]([O-])c1cc([N+](=O)[O-])c(O)c([N+](=O)[O-])c1, the outcome is reported as “inactive”.
For CN(C(=O)Cc1ccc(Cl)c(Cl)c1)[C@H]1CC[C@@]2(CCCO2)C[C@@H]1N1CCCC1, the outcome was “inactive”.
O=[N+]([O-])c1ccc2c(c1)nnn2O was tested, and the outcome was “inactive”.
With CN(C)C(=O)c1cc([N+](=O)[O-])cc2c1-c1c(cc([N+](=O)[O-])cc1[N+](=O)[O-])C2=O the outcome was “inactive”.
In the case of CCOP1(=S)c2c(C)nn(CCC#N)c2N=C(c2ccc(F)cc2)N1C (configuration not stated), the outcome is reported as “inactive”.
In the case of CN(C(=O)Cc1ccccc1)[C@@H]1CC[C@]2(CCCO2)C[C@H]1N1CCCC1, the outcome is reported as “inactive”.
In the case of N#CCCN(C(=O)COC(=O)C(O)(c1ccccc1)c1ccccc1)c1ccc(F)cc1, the outcome is reported as “inactive”.
For CS(=O)(=O)c1cc([N+](=O)[O-])c2no[n+]([O-])c2c1, the outcome was “inactive”.
With O=P(Nc1nccs1)(Oc1ccccc1)Oc1ccccc1 the outcome was “inactive”.
In the case of O=P(Nc1nccs1)(c1ccccc1)c1nc2ccccc2s1 (configuration not stated), the outcome is reported as “inactive”.
In the case of O=C(O)c1cccc(Nc2c([N+](=O)[O-])cc([N+](=O)[O-])cc2[N+](=O)[O-])c1, the outcome is reported as “inactive”.
For CCOP1(=S)c2c(C)nn(CCC#N)c2N=C(c2ccccc2F)N1C (configuration not stated), the outcome was “inactive”.
O=C(O)COc1ccc([As](=O)(O)O)cc1[N+](=O)[O-] was tested, and the outcome was “inactive”.
For Nc1ccccc1[As](=O)(O)c1ccccc1, the outcome was “inactive”.
For Cc1ccc(NP(C)(=O)Oc2ccccc2)c(C)c1 (configuration not stated), the outcome was “inactive”.
With CC(C)c1ccc(OP(=O)(Nc2ccccn2)Oc2ccccc2F)cc1 (configuration not stated) the outcome was “inactive”.
COc1ccccc1OP(C)(=O)Nc1ccc(C)cc1 (configuration not stated) was tested, and the outcome was “inactive”.
ClCCSc1nnc(-c2cccnc2)o1 was tested, and the outcome was “inactive”.
With CCOC(=O)c1ccc(NP(C)(=O)Oc2ccccc2)cc1 (configuration not stated) the outcome was “inactive”.
For Cc1cc(C)cc(OP(C)(N)=O)c1 (configuration not stated), the outcome was “inactive”.
